A short description of series [1]: Sirius T3 automated potentiometric titrations with n-octanol, log P / log D. Conditions: n-octanol/water, pH 7.4.
For series [2] the following is noted: rat, in vivo; cited from earlier work.

For `Cc1nc2n(c(=O)c1CCN1CCC(c3noc4cc(F)ccc34)CC1)CCCC2` [risperidone], the logD (in general, the decadic logarithm of the distribution of all forms, ionised or not, between an organic phase and buffer at a given pH) in series [1] was determined as 2.17.

Take `CCN(C)C(=O)Oc1cccc([C@H](C)N(C)C)c1` [rivastigmine]: the “Log BB” value in series [2] is 0.88.
